Series [1] deals with human red blood cells (hRBC). To be noted: human erythrocytes (Oren and Shai, 1996); cited from earlier work.
The subject of series [2] is human red blood cells (hRBC). Nature of the series: Hemolysis of human red blood cells. The class given is cell-based. As to conditions: up to maximum concentration tested (50 μM). The source says:
(ix) Hemolysis of human red blood cells.

The structures appear in SMILES notation.

Consider `CC[C@H](C)[C@H](NC(=O)[C@H](CCCCN)NC(=O)[C@@H]1CCCN1C(=O)[C@@H](NC(=O)[C@H](CC(C)C)NC(=O)[C@H](C)NC(=O)[C@H](Cc1ccccc1)NC(=O)[C@H](Cc1ccccc1)NC(=O)CN)[C@@H](C)CC)C(=O)N[C@H](C(=O)N[C@@H](CO)C(=O)N[C@@H](CO)C(=O)N1CCC[C@H]1C(=O)N[C@@H](CC(C)C)C(=O)N[C@@H](Cc1ccccc1)C(=O)N[C@@H](CCCCN)C(=O)N[C@H](C(=O)N[C@@H](CC(C)C)C(=O)N[C@@H](CC(C)C)C(=O)N[C@@H](CO)C(=O)N[C@@H](C)C(=O)N[C@H](C(=O)NCC(=O)N[C@@H](CO)C(=O)N[C@@H](C)C(=O)N[C@@H](CC(C)C)C(=O)N[C@@H](CO)C(=O)N[C@@H](CO)C(=O)N[C@@H](CO)C(=O)NCC(=O)NCC(=O)N[C@@H](CCC(N)=O)C(=O)N[C@@H](CCC(=O)O)C(=O)O)C(C)C)[C@@H](C)O)[C@@H](C)CC` [Pardaxin], for which the “fold less hemolytic than melittin” value in series [1] is 40-100 fold.
With `CC[C@@H](C)[C@@H](NC(=O)[C@H](CC(C)C)NC(=O)[C@H](C)NC(=O)[C@@H]1CCCN1C(=O)[C@H](CC(C)C)NC(=O)CNC(=O)[C@@H](NC(=O)[C@@H](NC(=O)[C@H](CC(C)C)NC(=O)[C@H](NC(=O)[C@H](CCCCN)NC(=O)[C@H](CC(C)C)NC(=O)[C@H](NC(=O)[C@H](C)NC(=O)CNC(=O)[C@@H](NC(=O)CN)[C@@H](C)CC)C(C)C)C(C)C)[C@@H](C)O)[C@@H](C)O)C(=O)N[C@@H](CO)C(=O)N[C@@H](Cc1c[nH]c2ccccc12)C(=O)N[C@H](C(=O)N[C@H](CCCCN)C(=O)N[C@@H](CCCNC(=N)N)C(=O)N[C@@H](CCCCN)C(=O)N[C@@H](CCCNC(=N)N)C(=O)N[C@@H](CCC(N)=O)C(=O)N[C@@H](CCC(N)=O)C(N)=O)[C@@H](C)CC` [Peptide 18], in series [2], the “hemolytic activity (dose response)” value is reported as “practically devoid of hemolytic activity”.
